Experimental data from patent US20250145564A1, “SULFONYLUREA COMPOUND, PREPARATION METHOD THEREFOR, AND APPLICATION THEREOF” (SHANGHAI INSTITUTE OF MATERIA MEDICA, CHINESE ACADEMY OF …, priority 2021, published 2025).

By UniProt entry, the sequences of proteins in these tests, tags left out.
UniProt P34913, whole entry: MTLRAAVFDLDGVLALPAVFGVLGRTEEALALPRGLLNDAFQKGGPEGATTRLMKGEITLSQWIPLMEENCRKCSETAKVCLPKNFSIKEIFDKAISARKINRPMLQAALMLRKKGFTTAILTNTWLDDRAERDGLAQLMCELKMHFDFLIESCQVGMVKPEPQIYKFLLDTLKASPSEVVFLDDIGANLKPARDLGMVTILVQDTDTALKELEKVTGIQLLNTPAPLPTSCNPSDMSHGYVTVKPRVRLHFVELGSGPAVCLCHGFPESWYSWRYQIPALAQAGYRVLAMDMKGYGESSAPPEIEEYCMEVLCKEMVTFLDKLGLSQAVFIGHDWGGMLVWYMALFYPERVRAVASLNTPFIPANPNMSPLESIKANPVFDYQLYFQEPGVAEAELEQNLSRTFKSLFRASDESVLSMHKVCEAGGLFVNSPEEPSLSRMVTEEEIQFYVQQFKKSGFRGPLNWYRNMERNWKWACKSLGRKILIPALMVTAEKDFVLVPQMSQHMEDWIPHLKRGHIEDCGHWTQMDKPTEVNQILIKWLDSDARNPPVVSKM

Target: sEH (human recombinant) (Homo sapiens, UniProt P34913)
Assay: sEH inhibition assay (fluorescence);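 further: enzyme preincubated with compound 30 min at 25 °C, then substrate added and fluorescence read after 15 min at 25 °C, 320 nm and 460 nm, versus DMSO negative control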
Conditions: read-out: Inhibitory activity (IC50) on sEH, 25° C.

SMILES | IC50
CCC1=C(C)CN(C(=O)NCCc2ccc(S(=O)(=O)N(C)C(=O)N[C@H]3CC[C@H](COC(=O)CN(C)C)CC3)cc2)C1=O | 200 to 1000 nM
CCC1=C(C)CN(C(=O)NCCc2ccc(S(=O)(=O)N(C)C(=O)N[C@H]3CC[C@H](C(=O)OC(C)OC(=O)OC4CCCCC4)CC3)cc2)C1=O (stereo partly drawn) | 10000 to 100000 nM
CCC1=C(C)CN(C(=O)NCCc2ccc(S(=O)(=O)NC(=O)N[C@H]3CC[C@H](C(=O)OC(C)C)CC3)cc2)C1=O | 200 to 1000 nM
